{"source": "patent US11421204B2", "about": "“Method of removing pluripotent cells from culture” (REPROCELL INCORPORATED, priority 2015, dated 2022)", "key": {"[1]": {"test_system": "cardiac muscle cell performed differentiation induction from the human iPS cell", "test": "Evaluation of effect of ALA-PDT for cardiac muscle cell originated from iPS cell"}, "[2]": {"test_system": "iPS cell (cell line 201B7)", "test": "Evaluation of effects of ALA-PDT for iPS cell (cell form, ALP expression)", "assay_type": "cell-based, human", "settings": "ALA 1000 micro-M and/or SFC 500 micro-M for 48 hours, blue LED (405 nm) 10 minutes, observed 24 hours afterward"}, "[3]": {"test_system": "neuron performed differentiation induction from the human iPS cell (ReproNeuro)", "test": "Evaluation of effects of ALA-PDT for neuron originated from iPS cell", "assay_type": "cell-based", "settings": "ALA 250, 500 micro-M for 4 hours, red LED (635 nm) 10 minutes; shortly after (not shown)", "description": "Then, the effects by ALA-PDT for the neuron performed differentiation induction from the human iPS cell (neuron originated from iPS cell) were evaluated. The used neuron was ReproNeuro. […] After that, the cell form was observed. Then, the cultured neuron was irradiated with red LED (wavelength of 635 nm) for 10 minutes, and the cell form was observed after 12-hour progresses (overnight). Then, it was exchanged the culture medium, which ALA was not included, and the cell form was observed after cultivating with exchanging the culture media for seven days."}, "[4]": {"test_system": "iPS cell (cell line 201B7)", "test": "Comparison of effects by wavelength of photoirradiation of ALA-PDT for iPS cell", "assay_type": "cell-based, human", "settings": "ALA 100 or 1000 micro-M for 4 hours, red LED (635 nm) or blue LED (405 nm) 10 minutes, observed 24 hours afterward", "description": "Then, the effect by the difference of the wavelength in the photoirradiation of ALA-PDT for a human iPS cell was compared.\nThen, the cultured iPS cell was irradiated with red LED (wavelength of 635 nm) or blue LED (wavelength of 405 nm) for 10 minutes, and the cell form was observed 24 hours afterward.\nCulture conditions were: used cell line: 201B7 and used culture-medium: Primate ES Cell Medium."}}, "data": [{"compound": "NCC(=O)CCC(=O)O", "note": "[ALA, delta-aminolevulinic acid]", "values": [{"measurement": "beating and colony shape of cardiac muscle cell after ALA-PDT", "setting": "[1]; ALA 500 micro-M for 4 hours, red LED 10 minutes, observed after 12 hours (overnight)", "value": "the naturally-beating cardiac muscle stopped, and the cardiac muscle colony also lost its shape"}, {"measurement": "recovery and beating of cardiac muscle cell after ALA-PDT", "setting": "[1]; about 250 micro-M ALA, several days after ALA-PDT, preliminary experiment (not shown)", "value": "recovered as like the neuron and beat"}, {"measurement": "cell form of iPS cell colonies after ALA-PDT", "setting": "[2]", "value": "the colonies of the iPS cells collapsed, and a part of them was exfoliated"}, {"measurement": "neural spine after addition of ALA and LED irradiation", "setting": "[3]", "value": "the neural spine became short, temporarily"}, {"measurement": "cell form of iPS cell colony after ALA-PDT, red vs blue LED", "setting": "[4]", "value": "the colony collapsed"}]}]}
